Measured values from patent US20150111864A1, “CRYSTALLINE FORM OF A BETA-LACTAMASE INHIBITOR” (Cubist Pharmaceuticals, Inc., priority 2013, published 2015).

Key:
[1] = system: Pae clinical strain expressing KPC-2; test: Synergy MIC (sMIC) assay; format: cell-based, Pseudomonas aeruginosa; settings: β-Lactam CXA-101 at 4 μg/mL; KPC-2, clinical Pae
Procedure: (§1) The synergy MIC (sMIC) assay determines the concentration of the BLI required to potentiate the activity of a fixed concentration of a β-lactam antibiotic against β-lactamase producing bacterial strains. The experimental protocol was performed according to Clinical and Laboratory Standards Institute (CLSI) guidelines with modifications as described below (CLSI guidelines can be derived from the CLSI document M07-A9 published in January 2012: “Methods for Dilution Antimicrobial Susceptibility Tests for Bacteria That Grow Aerobically; Approved Standard-Ninth Edition”). […]
(§2) Plates were incubated for 18-20 hours at 37° C. with aeration (200 rpm). Following incubation, growth was confirmed visually placing plates over a viewing apparatus (stand with a mirror underneath) and then OD600 was measured using a SpectraMax 340PC384 plate reader (Molecular Devices, Sunnyvale, Calif.). Growth was defined as turbidity that could be detected with the naked eye or achieving minimum OD600 of 0.1. sMIC values were defined as the lowest concentration producing no visible turbidity. […]

[2] = system: Kpn clinical strain expressing KPC-2; test: Synergy MIC (sMIC) assay; format: cell-based, Klebsiella pneumoniae; settings: β-Lactam CXA-101 at 4 μg/mL; KPC-2, clinical Kpn
Procedure: as §1, §2

[3] = system: Pae.2808 (KPC-2, clinical); test: Standard BLI Potentiation MIC Assay in Combination with Ceftolozane; format: cell-based, Pseudomonas aeruginosa; settings: BLI at 4 μg/mL
Procedure: (§3) The experimental protocol was performed according to Clinical and Laboratory Standards Institute (CLSI) guidelines with modifications as described below (CLSI guidelines can be derived from the CLSI document M07-A9 published in January 2012: “Methods for Dilution Antimicrobial Susceptibility Tests for Bacteria That Grow Aerobically; Approved Standard-Ninth Edition”).
To prepare for MIC testing, frozen glycerol stocks of clinical isolates (Klebsiella pneumoniae, Escherichia coli, Enterobacter spp, Citrobacter spp, or Pseudomonas aeruginosa) were used to streak for isolated colonies on rich, non-selective, tryptic soy agar containing 5% sheep's blood (TSAB). Frozen glycerol stocks of laboratory engineered, isogenic E. coli strains, which contain cloned β-lactamase expressing plasmids were used to streak for isolated colonies on rich, selective LB agar supplemented with 25 μg/mL tetracycline to maintain the plasmid. All strains were incubated at 37° C. for 18-24 hrs. […]
as §2, with “0.1.” for “0.1. sMIC values were defined as the lowest concentration producing no visible turbidity.”

[4] = system: Kpn.2478 (KPC-3, TEM+, clinical); test: as above; format: cell-based, Klebsiella pneumoniae; settings: BLI at 4 μg/mL
Procedure: as §3
(§4) To prepare for MIC testing, frozen glycerol stocks of clinical isolates (Klebsiella pneumoniae, Escherichia coli, Enterobacter spp, Citrobacter spp, or Pseudomonas aeruginosa) were used to streak for isolated colonies on rich, non-selective, tryptic soy agar containing 5% sheep's blood (TSAB). Frozen glycerol stocks of laboratory engineered, isogenic E. coli strains, which contain cloned β-lactamase expressing plasmids were used to streak for isolated colonies on rich, selective LB agar supplemented with 25 μg/mL tetracycline to maintain the plasmid. All strains were incubated at 37° C. for 18-24 hrs.
(§5) On the day of testing, primary cultures were started by scraping off 5-10 colonies from the TSAB plates containing clinical strains or the tetracycline supplemented LB plates containing engineered strains. The clinical strain material was suspended in ˜5 mL of cation adjusted Mueller Hinton Broth (CAMHB) in 14 mL culture tubes. The engineered strain material was suspended in CAMHB (supplemented with 25 μg/mL tetracycline) in 14 mL culture tubes. All strains were incubated at 37° C. with aeration (200 rpm) for ˜2 hrs until the optical density at 600 nm (OD600) was ≧0.1.
(§6) The two compound components of the assay were each diluted in CAMHB and added to the 96-well broth microdilution assay plates. 50 μL of the β-lactam was added to each well of the assay plate in 2-fold dilutions with final concentrations ranging from 128 to 0.13 μg/mL. 25 μL of the BLI compound was added to all wells in the broth microdilution plates at a final concentration of 4 μg/mL. Inoculum cultures were prepared by standardizing the primary cultures to OD600=0.1 and then adding 20 μL of the adjusted primary culture per 1 mL CAMHB for clinical strains or CAMHB (supplemented with tetracycline at 100 μg/mL) for engineered strains, so that the final inoculum density was ˜10^5 colony forming units per milliliter. Diluted inoculum cultures were used to inoculate 25 μL per well in 96-well broth microdilution assay plates. The final volume of each well was 100 μL and contained a β-lactam at different concentrations, a BLIcompound at 4 μg/mL concentration, the bacterial culture at an OD600 of approximately 0.001 and when necessary tetracycline at 25 μg/mL.
(§7) Plates were incubated for 18-20 hours at 37° C. with aeration (200 rpm). Following incubation, growth was confirmed visually placing plates over a viewing apparatus (stand with a mirror underneath) and then OD600 was measured using a SpectraMax 340PC384 plate reader (Molecular Devices, Sunnyvale, Calif.). Growth was defined as turbidity that could be detected with the naked eye or achieving minimum OD600 of 0.1. MIC values were defined as the lowest concentration producing no visible turbidity.

[5] = system: Kpn.2913 (KPC-2, SHV+, clinical); test: as above; format: cell-based, Klebsiella pneumoniae; settings: BLI at 4 μg/mL
Procedure: as §3, §4, §5, §6, §7

[6] = system: Kpn.571 (TEM-26, clinical); test: as above; format: cell-based, Klebsiella pneumoniae; settings: BLI at 4 μg/mL
Procedure: as §3, §4, §5, §6, §7

[7] = system: Kpn.2914 (KPC-2, SHV+, clinical); test: as above; format: cell-based, Klebsiella pneumoniae; settings: BLI at 4 μg/mL
Procedure: as §3, §4, §5, §6, §7

[8] = system: Kpn.2926 (CTX-M-15, OXA-48, clinical); test: as above; format: cell-based, Klebsiella pneumoniae; settings: BLI at 4 μg/mL
Procedure: as §3, §4, §5, §6, §7

[9] = system: Kpn.2909 (KPC-3, SHV+, TEM+, clinical); test: as above; format: cell-based, Klebsiella pneumoniae; settings: BLI at 4 μg/mL
Procedure: as §3, §4, §5, §6, §7

[10] = system: Kpn.2918 (KPC-3, SHV+, TEM+, clinical); test: as above; format: cell-based, Klebsiella pneumoniae; settings: BLI at 4 μg/mL
Procedure: as §3, §4, §5, §6, §7

[11] = system: Kpn.2917 (KPC-2, SHV+, clinical); test: as above; format: cell-based, Klebsiella pneumoniae; settings: BLI at 4 μg/mL
Procedure: as §3, §4, §5, §6, §7

[12] = system: Kpn.2783 (CTX-M-15, SHV+, TEM+, clinical); test: as above; format: cell-based, Klebsiella pneumoniae; settings: BLI at 4 μg/mL
Procedure: as §3, §4, §5, §6, §7

[13] = system: Kpn.2490 (KPC-3, SHV+, TEM+, clinical); test: as above; format: cell-based, Klebsiella pneumoniae; settings: BLI at 4 μg/mL
Procedure: as §3, §4, §5, §6, §7

[14] = system: Eco isogenic strain expressing KPC-2; test: Synergy MIC (sMIC) assay; format: cell-based, Escherichia coli; settings: β-Lactam CXA-101 at 4 μg/mL; KPC-2, isogenic Eco
Procedure: as §1, §2

[15] = system: Eco.2781 (KPC-2, TEM+, clinical); test: Standard BLI Potentiation MIC Assay in Combination with Ceftolozane; format: cell-based, Escherichia coli; settings: BLI at 4 μg/mL
Procedure: as §3, §4, §5
(§8) The two compound components of the assay were each diluted in CAMHB and added to the 96-well broth microdilution assay plates. […]
as §2, with “0.1.” for “0.1. sMIC values were defined as the lowest concentration producing no visible turbidity.”

[16] = system: Eco.2840 (KPC-4, isogenic); test: as above; format: cell-based, Escherichia coli; settings: BLI at 4 μg/mL
Procedure: as §3, §4, §5, §8
as §2, with “0.1.” for “0.1. sMIC values were defined as the lowest concentration producing no visible turbidity.”

Eco.2711 (KPC, clinical) = test: as above; format: cell-based, Escherichia coli; settings: BLI at 4 μg/mL
Procedure: as §3, §4, §5, §8
as §2, with “0.1.” for “0.1. sMIC values were defined as the lowest concentration producing no visible turbidity.”

## (2S,5R)-2-(5-(3-aminopropyl)-1,3,4-oxadiazol-2-yl)-7-oxo-1,6-diazabicyclo[3.2.1]octan-6-yl hydrogen sulfate [ψ]
[1]
  sMIC: B (B = 1-2 μg/mL)
[2]
  sMIC: B (B = 1-2 μg/mL)
[3]
  MIC of Ceftolozane in combination with BLI: B (B = 1-2 μg/mL)
[4]
  MIC of Ceftolozane in combination with BLI: AA (AA = <0.25 μg/mL)
[5]
  MIC of Ceftolozane in combination with BLI: AA (AA = <0.25 μg/mL)
[6]
  MIC of Ceftolozane in combination with BLI: AA (AA = <0.25 μg/mL)
[7]
  MIC of Ceftolozane in combination with BLI: A (A = 0.25-0.5 μg/mL)
[8]
  MIC of Ceftolozane in combination with BLI: A (A = 0.25-0.5 μg/mL)
[9]
  MIC of Ceftolozane in combination with BLI: AA (AA = <0.25 μg/mL)
[10]
  MIC of Ceftolozane in combination with BLI: B (B = 1-2 μg/mL)
[11]
  MIC of Ceftolozane in combination with BLI: AA (AA = <0.25 μg/mL)
[12]
  MIC of Ceftolozane in combination with BLI: B (B = 1-2 μg/mL)
[13]
  MIC of Ceftolozane in combination with BLI: AA (AA = <0.25 μg/mL)
[14]
  sMIC: B (B = 1-2 μg/mL)
[15]
  MIC of Ceftolozane in combination with BLI: AA (AA = <0.25 μg/mL)
[16]
  MIC of Ceftolozane in combination with BLI: C (C = 4-8 μg/mL)
Eco.2711 (KPC, clinical)
  MIC of Ceftolozane in combination with BLI: AA (AA = <0.25 μg/mL)
